## Measured affinities in a library of Ab-14 light chain variants

The measurements come from Li et al. 2023 (doi:10.1038/s41467-023-39022-2) through the FLAb antibody collection.

Target peptide (SARS-CoV-2 spike, HR2 region): PDVDLGDISGINAS

Ab-14 is the parent antibody, in scFv form: VH, then three GGGGS repeats, then VL. The heavy chain is unchanged in all variants.
VH: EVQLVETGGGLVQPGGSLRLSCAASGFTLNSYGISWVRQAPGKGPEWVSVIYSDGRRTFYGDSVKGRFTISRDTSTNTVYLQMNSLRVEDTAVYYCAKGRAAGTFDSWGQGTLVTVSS
VL: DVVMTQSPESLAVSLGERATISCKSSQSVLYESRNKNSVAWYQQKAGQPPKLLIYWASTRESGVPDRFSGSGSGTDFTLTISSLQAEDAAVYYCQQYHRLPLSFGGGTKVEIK

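The parent was found by panning a naive human phage display library on the peptide. These sequences belong to a second round, designed from the earlier measurements on random variants of the parent. Group labels follow the data file (Ctrl: baseline library sampled from a position-specific scoring matrix, with some repeated check sequences; Rand: our label for a block that the file lists under HC and that is probably the random mutants of the ten best first-round binders; En: ensemble of fine-tuned language models; GP: Gaussian process model; HC: hill climbing; Gen: genetic algorithm; Gibbs: Gibbs sampling; a sequence that several methods proposed may carry one label only). The assay is AlphaSeq: two haploid yeast populations carry antibody and antigen on their surface. Mating (16 h, 30 °C) was followed by selection of diploids and sequencing of their barcodes. The ratio of observed to expected reads was calibrated, replicate by replicate, on BCL2-family standards whose Kd was known from biolayer interferometry. There are six technical replicates.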

The parent's light chain CDRs are KSSQSVLYESRNKNSVA, WASTRES, QQYHRLPLS; each variant's own CDRs replace them letter for letter.
Values are log10 of the apparent Kd in nM; lower means stronger binding.
Averages over replicates are reported, and they cover detected replicates only.
A pair that was not seen in any replicate is written "not detected"; this usually means weak binding, but a binder can also be missed.
Of ten entries with the parent sequence, four were seen in most replicates (averages 0.34 to 2.37), three in one and three in none, so single entries are noisy.
In the paper, a design with two or fewer of six values counts as a poor binder.
Empty control strains, which show no peptide, gave a signal in 4% of pairings with all light chain designs; the median was 2.64 and 95% of these signals were weaker than 1.59. No background was subtracted.
Values of this round are not directly comparable with the first-round values of the same sequences.

{"CDR-L1": "KFSQSVLTESMNQNSVA", "CDR-L2": "WASTRES", "CDR-L3": "QQYHRLPLS", "group": "Ctrl", "mean log10 Kd (nM)": "1.31", "replicates with signal": "5 of 6"}
{"CDR-L1": "KSSQSFLYESRNFNSVA", "CDR-L2": "DASTRES", "CDR-L3": "QQYHRLPLS", "group": "GP_HC", "mean log10 Kd (nM)": "-0.22", "replicates with signal": "6 of 6"}
{"CDR-L1": "KSGRGVLYESRNKCSVA", "CDR-L2": "GASTRES", "CDR-L3": "QQYHRYPLS", "group": "Rand", "mean log10 Kd (nM)": "1.02", "replicates with signal": "6 of 6"}
{"CDR-L1": "TISTLMRYESSLKNAIA", "CDR-L2": "NAQTREQ", "CDR-L3": "QQYHRLPIS", "group": "En_HC", "mean log10 Kd (nM)": "0.68", "replicates with signal": "6 of 6"}
{"CDR-L1": "NLGGEDFNDTYGMKAVA", "CDR-L2": "DVSEVGD", "CDR-L3": "QHYSRLPLS", "group": "En_Gibbs", "mean log10 Kd (nM)": "1.25", "replicates with signal": "6 of 6"}
{"CDR-L1": "KAQMLNLYEDRNKNSVA", "CDR-L2": "NASTRED", "CDR-L3": "QQYHRLPLS", "group": "GP_Gibbs", "mean log10 Kd (nM)": "0.33", "replicates with signal": "5 of 6"}
{"CDR-L1": "KLSQLFYKESRNKNNVA", "CDR-L2": "EMTTRMS", "CDR-L3": "QCYDRLPLS", "group": "En_HC", "mean log10 Kd (nM)": "1.10", "replicates with signal": "3 of 6"}
{"CDR-L1": "QIYQAMHTLSQKKNNVA", "CDR-L2": "DVNERGQ", "CDR-L3": "QQYYRLPLS", "group": "En_Gen", "mean log10 Kd (nM)": "0.43", "replicates with signal": "6 of 6"}
{"CDR-L1": "KSMQGVLYQSRNKNSVA", "CDR-L2": "GASTRES", "CDR-L3": "QQYHRLPLS", "group": "GP_HC", "mean log10 Kd (nM)": "0.69", "replicates with signal": "6 of 6"}
{"CDR-L1": "KFSGEMLYESRNKNSVA", "CDR-L2": "HASLRES", "CDR-L3": "QDYHRLPLQ", "group": "GP_Gibbs", "mean log10 Kd (nM)": "0.09", "replicates with signal": "6 of 6"}
{"CDR-L1": "KSSQSVLYESRNKNNVA", "CDR-L2": "NASTRES", "CDR-L3": "QQYHRLPLS", "group": "Ctrl", "mean log10 Kd (nM)": "0.01", "replicates with signal": "6 of 6"}
{"CDR-L1": "KLRQLMHIESFNKNNVA", "CDR-L2": "EMTTREK", "CDR-L3": "QSYDRLPLS", "group": "En_HC", "mean log10 Kd (nM)": "1.33", "replicates with signal": "6 of 6"}
{"CDR-L1": "KLVQQHLYESRNKNNVA", "CDR-L2": "EASTREQ", "CDR-L3": "QQYHRLPLS", "group": "GP_Gibbs", "mean log10 Kd (nM)": "-0.23", "replicates with signal": "6 of 6"}
{"CDR-L1": "KITFQGMLSDAHQYSIA", "CDR-L2": "QTNVYSQ", "CDR-L3": "QQYNRLPLD", "group": "En_Gibbs", "mean log10 Kd (nM)": "not detected", "replicates with signal": "0 of 6"}
{"CDR-L1": "KISMLYNYESTNKNSIA", "CDR-L2": "EMETRES", "CDR-L3": "QHYHRLPLS", "group": "En_HC", "mean log10 Kd (nM)": "not detected", "replicates with signal": "0 of 6"}
{"CDR-L1": "KDLQSVLYESRDKNSVA", "CDR-L2": "HASTRED", "CDR-L3": "QQYHRLPLS", "group": "GP_HC", "mean log10 Kd (nM)": "0.40", "replicates with signal": "6 of 6"}
{"CDR-L1": "KSSQSFLYESRWKNSVA", "CDR-L2": "GASWRES", "CDR-L3": "QQYHRLTLS", "group": "Rand", "mean log10 Kd (nM)": "not detected", "replicates with signal": "0 of 6"}
{"CDR-L1": "NSSGQGMFESRNKNSVA", "CDR-L2": "HASTREE", "CDR-L3": "QQYERLPLS", "group": "En_HC", "mean log10 Kd (nM)": "0.11", "replicates with signal": "6 of 6"}

Excerpt, the final 3 entries:

{"CDR-L1": "KDLQSVLYESRDKNSVA", "CDR-L2": "HASTRED", "CDR-L3": "QQYHRLPLS", "group": "GP_HC", "mean log10 Kd (nM)": "0.40", "replicates with signal": "6 of 6"}
{"CDR-L1": "KSSQSFLYESRWKNSVA", "CDR-L2": "GASWRES", "CDR-L3": "QQYHRLTLS", "group": "Rand", "mean log10 Kd (nM)": "not detected", "replicates with signal": "0 of 6"}
{"CDR-L1": "NSSGQGMFESRNKNSVA", "CDR-L2": "HASTREE", "CDR-L3": "QQYERLPLS", "group": "En_HC", "mean log10 Kd (nM)": "0.11", "replicates with signal": "6 of 6"}